The target of the experiment is Metabotropic glutamate receptor 4 (Homo sapiens, UniProt Q14833). Nature of the experiment: PubChem AID 2197.

The chains behind the UniProt entries cited, without tags or fusion partners. Where a name states a change or a piece, a line headed by the entry shows the natural chain unless it says otherwise.
UniProt Q14833: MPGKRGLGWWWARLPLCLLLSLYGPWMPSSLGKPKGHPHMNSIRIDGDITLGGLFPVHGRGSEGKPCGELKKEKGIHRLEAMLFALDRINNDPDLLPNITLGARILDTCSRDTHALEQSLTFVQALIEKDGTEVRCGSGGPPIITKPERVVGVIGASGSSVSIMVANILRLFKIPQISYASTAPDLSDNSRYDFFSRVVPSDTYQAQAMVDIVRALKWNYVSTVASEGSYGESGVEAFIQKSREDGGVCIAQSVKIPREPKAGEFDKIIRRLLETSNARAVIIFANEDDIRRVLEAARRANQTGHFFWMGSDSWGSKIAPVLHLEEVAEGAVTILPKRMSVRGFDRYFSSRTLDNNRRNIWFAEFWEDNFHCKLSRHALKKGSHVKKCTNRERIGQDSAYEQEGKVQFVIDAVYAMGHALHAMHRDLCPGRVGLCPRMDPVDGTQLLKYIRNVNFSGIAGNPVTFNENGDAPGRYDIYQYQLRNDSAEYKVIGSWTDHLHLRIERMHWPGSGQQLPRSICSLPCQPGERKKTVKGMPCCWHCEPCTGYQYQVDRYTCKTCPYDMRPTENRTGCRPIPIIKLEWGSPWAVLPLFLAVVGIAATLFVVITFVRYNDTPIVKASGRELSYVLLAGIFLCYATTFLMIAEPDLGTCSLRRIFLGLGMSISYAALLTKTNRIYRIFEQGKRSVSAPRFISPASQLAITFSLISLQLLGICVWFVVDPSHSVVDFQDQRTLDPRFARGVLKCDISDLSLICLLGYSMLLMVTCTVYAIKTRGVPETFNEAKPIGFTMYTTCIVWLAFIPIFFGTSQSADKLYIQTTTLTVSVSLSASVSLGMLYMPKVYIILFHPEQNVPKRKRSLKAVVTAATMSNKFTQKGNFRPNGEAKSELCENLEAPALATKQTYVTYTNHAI

For orientation: EC50 means the midpoint of the concentration-response curve. Lower therefore signals greater potency.

`CC1(C)c2c1c(O)n(-c1ccc(NC(=O)c3ccccn3)cc1Cl)c2O` [N-[3-chloranyl-4-[(1S,5R)-6,6-dimethyl-2,4-bis(oxidanylidene)-3-azabicyclo[3.1.0]hexan-3-yl]phenyl]pyridine-2-carboxamide] displayed a concentration for a half-maximal effect (EC50) of 473 nM.

Molecule `O=C(Nc1ccc(-n2c(O)cc(-c3ccccc3)c2O)c(Cl)c1)c1ccccn1` [N-[3-chloro-4-(2,5-dioxo-3-phenyl-1-pyrrolidinyl)phenyl]-2-pyridinecarboxamide] gave an EC50 of 823 nM. This EC50 is about 1.7-fold higher than that of the molecule before.

For the molecule `O=C(Nc1ccc(-n2c(O)c3c(c2O)CCCC3)c(Cl)c1)c1ccccn1` [VU0366515-1], the EC50 amounted to 265 nM.

(Values after BindingDB's records for doi:10.7270/Q2VT1QHF (Vanderbilt Screening Center For Gpcrs, Ion Channels and …, 2010).)
